US6706713B1, “Conjugate for treating inflammatory infectious and/or skin diseases” (priority 1995, dated 2004)

Test system: inflammation in a rat's leg
Experiment: Uptake of radioactively labeled MTX-HSA in an inflammation at the leg of a rat (scintigraphy)
Format: in vivo
Conditions: leg inflammation produced by injection of sephadex beads, non-inflamed leg as control, heart and liver regions also measured
Description: Uptake of Radioactively Labeled MTX-HSA in an Inflammation at the Leg of a Rat
An inflammation was produced as usual in a rat's leg by injection of sephadex beads. Then, the rat was given the radioactively labeled conjugate MTX-HSA according to the invention. MTX-HSA was determined scintigraphically in the inflamed leg, the non-inflamed leg (as control) as well as the heart and liver regions.

## MTX-HSA
  scintigraphic detection of uptake of the conjugate in the inflamed leg: accumulates in the inflamed leg
